Source: patent US20230357233A1, “HETEROARYL COMPOUNDS, PREPARATION METHODS AND USES THEREOF” (INVENTISBIO CO., LTD., priority 2020, published 2023)
Where two headings read alike, the source gives them in different places.

Chains of the proteins cited; added tags and fusions are not shown.
UniProt P01116, whole entry G12D: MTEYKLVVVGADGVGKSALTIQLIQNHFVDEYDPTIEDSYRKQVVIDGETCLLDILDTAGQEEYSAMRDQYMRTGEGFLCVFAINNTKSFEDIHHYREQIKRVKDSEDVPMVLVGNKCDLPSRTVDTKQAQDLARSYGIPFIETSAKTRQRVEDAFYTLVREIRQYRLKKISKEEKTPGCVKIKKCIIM

Molecular target: Ba/F3_KRAS^G12D cells (Homo sapiens, UniProt P01116, G12D, cells depend on it)
Assay: Ba/F3 KRAS^G12D cell proliferation assay (cell-titer Glo)
[1] = read-out: BaF3_KRAS^G12D IC50, cell growth inhibition, treated with the compounds for 3 days, tested form: TFA salt (3 eq)

Row | SMILES | GI50 [1] [nM] | GI50 (read-out: BaF3_KRAS^G12D IC50, cell growth inhibition, treated with the compounds for 3 days) [nM]
1 | C#Cc1c(F)ccc2cc(O)cc(-c3nc(OC(C)C)c4c(N5CC6CCC(C5)N6)cc(C(=O)N[C@H](C)CN(C)C)nc4c3F)c12 | < 500 | 
2 | CC#Cc1c(F)ccc2cc(O)cc(-c3nc(C)c4c(N5CC6CCC(C5)N6)nc(OC[C@@]56CCCN5C[C@H](F)C6)nc4c3F)c12 | < 500 | 
3 | C#Cc1c(F)ccc2cc(O)cc(-c3nc(OC(F)F)c4c(N5CC6CCC(C5)N6)nc(OC[C@@]56CCCN5C[C@H](F)C6)nc4c3F)c12 | < 500 | 
4 | C#Cc1c(F)ccc2cc(O)cc(-c3nc(OCCC4CC4)c4c(N5CC6CCC(C5)N6)ncnc4c3F)c12 |  | 500 to 5000
5 | CCOc1c(F)ccc2cc(O)cc(-c3nc(O)c4c(N5CC6CCC(C5)N6)nc(OC[C@@]56CCCN5C[C@H](F)C6)nc4c3F)c12 | 500 to 5000 | 
